The IC50 is the concentration at which inhibition is half-maximal.

Chains of the proteins cited; added tags and fusions are not shown. Residues count along the entry.
UniProt O15530, 51-360: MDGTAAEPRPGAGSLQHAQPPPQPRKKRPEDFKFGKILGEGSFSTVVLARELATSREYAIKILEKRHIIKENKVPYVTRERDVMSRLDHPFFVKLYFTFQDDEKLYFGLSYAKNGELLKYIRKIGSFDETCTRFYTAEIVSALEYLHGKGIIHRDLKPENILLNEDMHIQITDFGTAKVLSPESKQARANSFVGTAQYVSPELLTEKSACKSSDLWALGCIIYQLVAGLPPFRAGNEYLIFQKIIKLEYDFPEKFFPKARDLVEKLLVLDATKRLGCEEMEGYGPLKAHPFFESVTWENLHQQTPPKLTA

For one compound, IC50 results are on record in patent US9873693B2 (Sunesis Pharmaceuticals, Inc., priority 2006, dated 2018).

The target of the test is phosphorylated PDK1 (Homo sapiens (Human), UniProt O15530). Briefly: PDK1 kinase assay (coupled PDK1/AKT/FAM-crosstide, IMAP). In kind it is biochemical. The note with it: 0.5 nM phosphorylated PDK1, 24 μM ATP; read-out: Inhibition of phospo-PDK1 in vitro IC50.

On to `O=C(NC(COc1ccc2[nH]c(=O)[nH]c2c1)c1cccnc1)c1cccn(Cc2cc(F)c(F)c(F)c2)c1=O` (stereo not shown) [Cpd 163], for which the half-maximal inhibitory concentration (IC50) is less than 500 nM.
